Test results from publication PMC10914727 (Nature Communications, 2024).

Amino acid sequences for entries named in this document (tags omitted).
UniProt Q9WV18, whole entry: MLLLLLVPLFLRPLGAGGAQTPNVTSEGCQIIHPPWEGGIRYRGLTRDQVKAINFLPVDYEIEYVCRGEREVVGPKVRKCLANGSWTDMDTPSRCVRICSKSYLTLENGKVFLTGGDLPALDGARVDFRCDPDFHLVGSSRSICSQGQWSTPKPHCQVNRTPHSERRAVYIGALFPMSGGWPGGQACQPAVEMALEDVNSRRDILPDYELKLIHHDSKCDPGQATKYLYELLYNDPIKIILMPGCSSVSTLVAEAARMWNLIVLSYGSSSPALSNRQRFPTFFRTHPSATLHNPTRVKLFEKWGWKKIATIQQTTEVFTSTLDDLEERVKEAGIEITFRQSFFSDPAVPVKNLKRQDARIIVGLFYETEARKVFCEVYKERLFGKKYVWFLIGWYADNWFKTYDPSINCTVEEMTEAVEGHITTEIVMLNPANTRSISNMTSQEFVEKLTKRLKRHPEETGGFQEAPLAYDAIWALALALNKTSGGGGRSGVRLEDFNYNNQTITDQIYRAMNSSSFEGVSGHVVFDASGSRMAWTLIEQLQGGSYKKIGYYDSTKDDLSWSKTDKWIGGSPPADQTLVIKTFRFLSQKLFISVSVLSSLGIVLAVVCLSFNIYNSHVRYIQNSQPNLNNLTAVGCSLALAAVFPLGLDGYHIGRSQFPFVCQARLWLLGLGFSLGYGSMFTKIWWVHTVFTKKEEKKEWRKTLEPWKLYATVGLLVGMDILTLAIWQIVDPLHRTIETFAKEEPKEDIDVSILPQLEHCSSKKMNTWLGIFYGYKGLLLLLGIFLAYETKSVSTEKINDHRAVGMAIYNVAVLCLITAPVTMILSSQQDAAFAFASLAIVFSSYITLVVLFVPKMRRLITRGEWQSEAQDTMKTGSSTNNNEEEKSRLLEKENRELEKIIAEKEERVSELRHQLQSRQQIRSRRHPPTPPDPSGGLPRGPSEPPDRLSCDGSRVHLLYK

Assays:
Test in all cases: cell-based
[1] = molecular target: T1, endogenous GABAB receptor in cortical neurons (Mus musculus, UniProt Q9WV18); set-up: species or system primary cortical neurons; details: pEC50 cortical neurons
T1 construct: gene Gabbr1; native receptor, primary cortical neurons
Excerpt: Sequence of the linker (L) before and after Nluc was indicated. […] The raw data and p-values are available in source data provided as a Source Data file.

[2] = molecular target: T2, endogenous GABAB receptor in hippocampal neurons (Mus musculus, UniProt Q9WV18); set-up: species or system primary hippocampal neurons; BRET G protein sensor (Galpha-Nluc / Venus-Ggamma2), agonist-induced change of BRET; details: read-out: pEC50 hippocampal neurons (converted)
T2 construct: gene Gabbr1; native receptor, primary hippocampal neurons
Excerpt: We have further validated these G protein sensors by measuring the potency of different orthosteric GABAB receptor ligands (Fig. 3a) in both CGNs and HEK293 cells. […] Similar results were obtained in the hippocampal neurons and cortical neurons (Supplementary Fig. 4b–d and Supplementary Table 1). […] Sequence of the linker (L) before and after Nluc was indicated. […] The data are representative of BRET ratios from five independent experiments. e Representative fluorescent images of Venus and DAPI in CGNs transfected with GαoA^Nluc and ^VenusGγ2 or in HEK293 cells transfected with GαoA^Nluc, Gβ1 and ^VenusGγ2 from three independent experiments. […] The data are representative of the mean ± SEM of BRET ratios from three independent experiments. The raw data and p-values are available in source data provided as a Source Data file.

[3] = molecular target: T3, endogenous GABAB receptor in CGNs (Mus musculus, UniProt Q9WV18); set-up: species or system primary cerebellar granule neurons (CGNs); BRET G protein sensor (Galpha-Nluc / Venus-Ggamma2), agonist-induced change of BRET
T3 construct: gene Gabbr1; native receptor, primary cerebellar granule neurons
Excerpt: We have further validated these G protein sensors by measuring the potency of different orthosteric GABAB receptor ligands (Fig. 3a) in both CGNs and HEK293 cells. […] Similar results were obtained in the hippocampal neurons and cortical neurons (Supplementary Fig. 4b–d and Supplementary Table 1). […] Dotted line is the correlation of pEC50 determined with HEK293 cells. […] Data are mean ± SEM from at least three biologically independent experiments each performed in triplicate and analysed using one-way ANOVA with a Dunnett’s post-hoc multiple comparison test to determine significance. […] The raw data and p-values are available in source data provided as a Source Data file. Fig. 1 Design and validation of the Gi/o protein sensors in neurons. a Scheme of the BRET-based sensors to detect the activity of the endogenous GPCR in neurons. b Scheme of the Gαi/o^Nluc and ^VenusGγ2 constructs co-transfected in the neurons. Sequence of the linker (L) before and after Nluc was indicated. […] The data are representative of BRET ratios from five independent experiments. e Representative fluorescent images of Venus and DAPI in CGNs transfected with GαoA^Nluc and ^VenusGγ2 or in HEK293 cells transfected with GαoA^Nluc, Gβ1 and ^VenusGγ2 from three independent experiments. […] The data are representative of the mean ± SEM of BRET ratios from three independent experiments. […]

SMILES: NCCCC(=O)O [GABA]
- EC50 [1]: 4.17 µM
- EC50 ([2]; Gi1 sensor): 3.31 µM
- EC50 ([2]; GoA sensor): 7.08 µM
- EC50 ([3]; Gi1 sensor): 9.33 µM
- EC50 ([3]; GoA sensor): 8.51 µM

Like-named read-outs stand apart in the source and are kept apart here.
